The source of these data is ChEMBL document CHEMBL4049434, “Radiolabeled Dibenzodiazepinone-Type Antagonists Give Evidence of Dualsteric Binding at the M2 Muscarinic Acetylcholine Receptor” (J Med Chem, 2017).

By UniProt entry, the sequences of proteins in these tests, tags left out.
UniProt P08172, whole entry: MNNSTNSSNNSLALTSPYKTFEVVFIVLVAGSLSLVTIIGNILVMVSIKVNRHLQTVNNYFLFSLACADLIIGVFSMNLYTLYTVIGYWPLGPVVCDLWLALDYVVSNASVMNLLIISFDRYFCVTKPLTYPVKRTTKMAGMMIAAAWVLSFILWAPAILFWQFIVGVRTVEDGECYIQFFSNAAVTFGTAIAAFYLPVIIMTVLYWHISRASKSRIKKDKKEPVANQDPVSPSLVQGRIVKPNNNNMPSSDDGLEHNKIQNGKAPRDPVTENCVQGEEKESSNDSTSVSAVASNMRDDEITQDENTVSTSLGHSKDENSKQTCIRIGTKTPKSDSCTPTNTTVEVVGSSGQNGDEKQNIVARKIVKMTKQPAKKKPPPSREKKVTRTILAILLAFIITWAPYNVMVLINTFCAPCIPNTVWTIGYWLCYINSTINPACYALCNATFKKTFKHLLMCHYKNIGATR

For orientation: IC50 means the concentration that gives 50% inhibition. Usually Ki stands for a dissociation constant, usually derived from enzyme kinetics or from competition with a known ligand. A higher Ki goes with a looser hold on the target.

Assay [1] concerns the target T1, Muscarinic acetylcholine receptor M2 (Homo sapiens, UniProt P08172). The assay is described as follows: Displacement of [3H]NMS from human muscarinic acetylcholine receptor M2 expressed in CHO cells after 60 mins by scintillation counting assay. The format is cell-based. (Displacement assays read how much labelled ligand stays bound in the presence of the test substance.)

In assay [2] the target is T1, Muscarinic acetylcholine receptor M2. Put plainly: Displacement of [3H]UR-AP060 from human muscarinic acetylcholine receptor M2 expressed in CHOK9 cell homogenate after 3 hrs by liquid scintillation counting assay.
Assay [3] shares this target. Put plainly: Displacement of [3H]UNSW-MK259 from human muscarinic acetylcholine receptor M2 expressed in CHOK9 cells after 3 hrs by liquid scintillation counting assay. It is filed as cell-based.

In assay [1], `CCCCCCOc1nsnc1C1=CCCN(C)C1` [XANOMELINE] gave an IC50 of 39.8 to 316 nM. The Ki in assay [2] is 4470 nM; in assay [3], 269 nM.
